Where two headings read alike, the source gives them in different places.
Test system: MT-4 cells
Conditions: MTT method
[1] = IIIB experiments P3.4401 and P3.4406
[2] = ROD experiments P3.4402 and P3.4407

Structure (SMILES)	CC50 [1] [µM]	CC50 [2] [µM]
CCCCCCCCCC(=O)Oc1ccc(/C=C/C(=O)CC(=O)/C=C/c2ccc(OC(=O)CCCCCCCCC)c(OC)c2)cc1OC [Compound 3, 1,7-Bis-[(4,4-di-O-decanoyl)3-methoxyphenyl]-1,6-heptadiene-3,5-dione]	0.091	0.044
COc1cc(/C=C/C(=O)CC(=O)/C=C/c2ccc(O)c(OC)c2)ccc1O [Curcumin, 1,7-bis(4-hydroxy-3-methoxyphenyl)-1,6-heptadiene-3,5-dione, reference compound]	0.034	0.039
